Data published in ChEMBL document CHEMBL4622954, “Structural manipulation of aporphines via C10 nitrogenation leads to the identification of new 5-HT7AR ligands” (Bioorg Med Chem, 2020).

The chains behind the UniProt entries cited, without tags or fusion partners.
UniProt P21917, whole entry: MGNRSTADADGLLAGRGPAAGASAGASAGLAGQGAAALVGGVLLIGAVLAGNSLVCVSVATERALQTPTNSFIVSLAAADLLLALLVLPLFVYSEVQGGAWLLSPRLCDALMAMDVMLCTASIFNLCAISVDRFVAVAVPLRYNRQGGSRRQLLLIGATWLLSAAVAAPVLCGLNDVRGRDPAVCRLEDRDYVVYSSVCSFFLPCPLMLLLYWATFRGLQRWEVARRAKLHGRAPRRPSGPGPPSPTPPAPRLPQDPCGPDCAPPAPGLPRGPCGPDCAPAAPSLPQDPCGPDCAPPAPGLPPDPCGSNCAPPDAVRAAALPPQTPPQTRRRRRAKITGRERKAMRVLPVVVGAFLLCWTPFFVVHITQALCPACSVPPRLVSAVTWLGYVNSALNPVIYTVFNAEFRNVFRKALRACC
UniProt P21918, whole entry: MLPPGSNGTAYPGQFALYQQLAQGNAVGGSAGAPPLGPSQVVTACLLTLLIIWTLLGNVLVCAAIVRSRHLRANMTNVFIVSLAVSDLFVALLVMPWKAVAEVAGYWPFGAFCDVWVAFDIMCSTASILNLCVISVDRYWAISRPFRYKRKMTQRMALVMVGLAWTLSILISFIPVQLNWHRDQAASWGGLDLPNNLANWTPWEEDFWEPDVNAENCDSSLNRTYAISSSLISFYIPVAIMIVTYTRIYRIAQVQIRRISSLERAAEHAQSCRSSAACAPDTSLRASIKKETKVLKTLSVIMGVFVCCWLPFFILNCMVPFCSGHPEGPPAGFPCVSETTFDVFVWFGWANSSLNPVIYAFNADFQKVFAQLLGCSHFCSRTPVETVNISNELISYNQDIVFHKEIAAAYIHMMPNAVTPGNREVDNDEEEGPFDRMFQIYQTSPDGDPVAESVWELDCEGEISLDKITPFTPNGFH
UniProt P21728, whole entry: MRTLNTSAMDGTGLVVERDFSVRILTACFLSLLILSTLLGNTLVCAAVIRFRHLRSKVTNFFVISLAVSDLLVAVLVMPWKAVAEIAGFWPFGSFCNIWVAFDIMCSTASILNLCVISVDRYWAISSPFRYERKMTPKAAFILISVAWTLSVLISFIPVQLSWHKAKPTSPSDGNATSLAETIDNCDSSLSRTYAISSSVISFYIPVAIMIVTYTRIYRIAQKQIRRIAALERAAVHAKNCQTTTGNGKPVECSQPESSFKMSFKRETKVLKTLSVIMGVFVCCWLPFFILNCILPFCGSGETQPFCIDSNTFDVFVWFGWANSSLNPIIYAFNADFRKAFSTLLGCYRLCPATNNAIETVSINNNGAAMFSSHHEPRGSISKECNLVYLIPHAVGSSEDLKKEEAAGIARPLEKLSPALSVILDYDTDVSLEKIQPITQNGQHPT
UniProt P50406, whole entry: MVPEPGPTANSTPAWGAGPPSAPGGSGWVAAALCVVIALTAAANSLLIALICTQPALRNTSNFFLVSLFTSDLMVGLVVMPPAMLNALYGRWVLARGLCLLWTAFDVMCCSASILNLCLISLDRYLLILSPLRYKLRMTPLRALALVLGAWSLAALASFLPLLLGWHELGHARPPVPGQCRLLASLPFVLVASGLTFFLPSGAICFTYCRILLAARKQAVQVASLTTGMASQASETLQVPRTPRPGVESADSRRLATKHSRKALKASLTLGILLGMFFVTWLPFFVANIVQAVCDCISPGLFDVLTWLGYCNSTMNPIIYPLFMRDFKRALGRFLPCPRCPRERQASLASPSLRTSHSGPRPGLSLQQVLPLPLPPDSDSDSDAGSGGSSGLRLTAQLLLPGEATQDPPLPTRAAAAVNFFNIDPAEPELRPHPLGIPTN
UniProt P14416, whole entry: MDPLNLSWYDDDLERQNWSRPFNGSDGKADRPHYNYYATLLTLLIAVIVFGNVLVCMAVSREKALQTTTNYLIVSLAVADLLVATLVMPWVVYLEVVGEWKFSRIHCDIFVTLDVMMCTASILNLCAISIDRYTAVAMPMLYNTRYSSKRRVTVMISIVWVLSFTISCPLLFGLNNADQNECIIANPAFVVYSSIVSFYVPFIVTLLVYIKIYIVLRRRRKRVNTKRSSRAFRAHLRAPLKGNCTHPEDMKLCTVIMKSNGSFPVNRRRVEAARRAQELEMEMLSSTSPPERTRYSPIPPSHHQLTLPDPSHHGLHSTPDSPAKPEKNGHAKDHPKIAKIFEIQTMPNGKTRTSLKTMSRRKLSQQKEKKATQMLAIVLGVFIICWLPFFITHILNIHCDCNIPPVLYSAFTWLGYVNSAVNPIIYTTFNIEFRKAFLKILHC

Columns and labels:
D(4) dopamine receptor = D(4) dopamine receptor (Homo sapiens, UniProt P21917); assay: Displacement of [3H]-N-Methylspiperone from human dopamine D4 receptor expressed in stable HEK cells incubated for 90 mins by microbeta counting method; assay type: cell-based
D(1B) dopamine receptor = D(1B) dopamine receptor (Homo sapiens, UniProt P21918); assay: Binding affinity to human dopamine D5 receptor expressed in HEKT cells incubated for 90 mins by microbeta counting method; assay type: cell-based
D(1A) dopamine receptor = D(1A) dopamine receptor (Homo sapiens, UniProt P21728); assay: Displacement of [3H]-SCH23390 from human dopamine D1 receptor expressed in HEKT cells incubated for 90 mins by microbeta counting method
[1] = molecular target: 5-hydroxytryptamine receptor 6 (Homo sapiens, UniProt P50406); assay: Displacement of [3H]-LSD from human 5-HT6 receptor expresssed in stable HEK cell membrane incubated for 90 mins by microbeta counting method
D(2) dopamine receptor = D(2) dopamine receptor (Homo sapiens, UniProt P14416); assay: Displacement of [3H]-N-Methylspiperone from human dopamine D2 receptor expressed in stable fibroblast cells incubated for 90 mins by microbeta counting method

Measured: inhibition

CN1CCc2cccc3c2C1Cc1ccc(NC(N)=O)cc1-3 (racemic)
< 50%: all assays above

CN1CCc2cccc3c2C1Cc1cc2sc(N)nc2cc1-3 (racemic)
< 50%: all assays above
